Biological target: Delta-type opioid receptor (Homo sapiens) (UniProt P41143)
Assay: % stimulation of GTPgammaS binding in cloned human Opioid receptor delta 1 transfected into hamster ovary cells with respect to DPDPE

Sequences of proteins named here, by UniProt entry; tags and fusion partners are left off.
UniProt P41143, whole entry, looked up: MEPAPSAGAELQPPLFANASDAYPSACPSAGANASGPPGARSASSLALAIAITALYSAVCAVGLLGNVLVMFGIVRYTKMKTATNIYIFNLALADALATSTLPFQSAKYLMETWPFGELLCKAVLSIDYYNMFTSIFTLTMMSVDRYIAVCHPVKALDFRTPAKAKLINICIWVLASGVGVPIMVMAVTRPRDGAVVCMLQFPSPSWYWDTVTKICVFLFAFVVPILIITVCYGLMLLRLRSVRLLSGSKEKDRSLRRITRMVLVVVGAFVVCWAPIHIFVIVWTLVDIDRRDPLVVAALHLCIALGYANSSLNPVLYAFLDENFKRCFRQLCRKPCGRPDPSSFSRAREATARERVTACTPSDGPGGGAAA

## CO[C@@]12CC[C@@]3(C[C@@H]1[C@](C)(O)C(C)(C)C)[C@H]1Cc4ccc(O)c5c4[C@@]3(CCN1CC1CC1)[C@H]2O5
  Stimulation: < 20%
